Target: T1, cannabinoid CB2 receptor (hCB2) (Homo sapiens, UniProt P34972)
T1 construct: expressed in transfected cells; host or cells: HEK293
Test: β-arrestin recruitment in hCB2-transfected HEK293 cells
Format: cell-based

Sequences of proteins named here, by UniProt entry; tags and fusion partners are left off.
UniProt P34972, whole entry: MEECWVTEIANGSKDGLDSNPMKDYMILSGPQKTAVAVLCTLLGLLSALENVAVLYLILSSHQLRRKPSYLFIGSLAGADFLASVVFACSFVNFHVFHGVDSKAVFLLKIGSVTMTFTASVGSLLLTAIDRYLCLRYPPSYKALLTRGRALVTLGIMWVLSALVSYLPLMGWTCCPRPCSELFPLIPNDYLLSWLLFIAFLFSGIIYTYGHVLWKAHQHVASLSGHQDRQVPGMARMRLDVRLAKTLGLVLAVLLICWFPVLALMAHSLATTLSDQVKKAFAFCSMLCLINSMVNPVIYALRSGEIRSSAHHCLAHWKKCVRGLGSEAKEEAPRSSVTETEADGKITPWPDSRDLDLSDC

CCn1c2ccccc2c2cc(C(=O)c3ccc(C)c4ccccc34)ccc21 [Compound 8, 9-ethyl-3-[(4-methylnaphthalen-1-yl)carbonyl]-9H-carbazole]
Agonist efficacy (% activation) CB2: 8 % activation
Antagonist efficacy (% activation) CB2: 52 % activation
